Values quoted from earlier work as cited in article PMC2845799.

Target: FRB domain FRB (Homo sapiens) (UniProt P42345)

Kd: < 1 nM
Substance: FKBP FKBP domain (from UniProt P62942)
